# According to PMC5024109:
# Experiments:
# [1] = molecular target: tubulin (free αβ dimers; α2β2 tetramer)
# [2] = molecular target: microtubules polymerized from purified tubulin; assay: co-sedimentation; Syn 0.5-32 μM incubated 20 min at 37 °C with paclitaxel-stabilized preformed MTs (4 μM tubulin dimers), 70000 x g 15 min 25 °C; Syn in supernatant and pellet by western blot; bound versus free fitted to a standard binding equation; apparent Kd
substance,measurement,setting,value
"α-Synuclein, wild type (recombinant) (from UniProt P37840 1-140) (natural protein)","MT catastrophe frequency by VE-DIC microscopy, tubulin 10 μM, preincubated Syn 0-10 μM (0.16 without Syn)",[1],1.04 min⁻¹
same,"MT catastrophe frequency by VE-DIC microscopy, tubulin 15 μM, preincubated Syn 0-15 μM (0.09 without Syn)",[1],0.27 min⁻¹
same,"MT growth rate by VE-DIC microscopy, tubulin 10 μM, preincubated Syn 0-10 μM (1.2 without Syn)",[1],1.38 μm/min
same,"MT growth rate by VE-DIC microscopy, tubulin 15 μM, preincubated Syn 0-15 μM (1.1 without Syn)",[1],1.38 μm/min
same,Kd,[2],7.48 µM
